Measured values: patent US20130280282A1, “DR5 LIGAND DRUG CONJUGATES” (Daiichi Sankyo Co., Ltd., priority 2012, published 2013)

Target: T1, recombinant soluble DR5 protein (rsDR5) (human, UniProt O14763 56-183)
T1 construct: Expressed in E. coli from pET21b(+)-sDR5 and purified on Ni-NTA; also called DR5 extracellular domain protein
Experiment: SPR, BIAcore 3000; conjugate captured by anti-human IgG (Fc) on CM5 chip, rsDR5 0.3-85 nM as analyte

Kd: 2.5 nM
B1: hB273-mc-MMAF (antibody drug conjugate of hB273 conjugated with mc-MMAF) (antibody, V domains shown)
VH: EVQLVQSGAEVKKPGASVKVSCKASGYSFIGYFMNWMKQSPGMSLEWIGRFNPYNEDTFYNQKFKGKATLTVDKSTSTAYMELSSLRSEDTAVYFCARSAYYFDSGGYFDYWGQGTLVTVSS
VL: DIVMTQSPLSLPVTPGEPASISCRSSQSLVHSNKNTYLHWYLQKPGQSPQLLIYKVSNRFSGVPDRFSGSGSGTDFTLKISRVEAEDVGVYYCSQSTHVPWTFGPGTKVEIKR
modifications: mc-MMAF drug-linker on cysteine thiols freed by partial TCEP reduction; average about 3.5 to 4.5 drug-linker units per antibody; positions not given
notes: Antibody drug conjugate of hB273; also called h13273-mc-MMAF
